Amino acid sequences for entries named in this document (tags omitted).
UniProt Q5S007, whole entry: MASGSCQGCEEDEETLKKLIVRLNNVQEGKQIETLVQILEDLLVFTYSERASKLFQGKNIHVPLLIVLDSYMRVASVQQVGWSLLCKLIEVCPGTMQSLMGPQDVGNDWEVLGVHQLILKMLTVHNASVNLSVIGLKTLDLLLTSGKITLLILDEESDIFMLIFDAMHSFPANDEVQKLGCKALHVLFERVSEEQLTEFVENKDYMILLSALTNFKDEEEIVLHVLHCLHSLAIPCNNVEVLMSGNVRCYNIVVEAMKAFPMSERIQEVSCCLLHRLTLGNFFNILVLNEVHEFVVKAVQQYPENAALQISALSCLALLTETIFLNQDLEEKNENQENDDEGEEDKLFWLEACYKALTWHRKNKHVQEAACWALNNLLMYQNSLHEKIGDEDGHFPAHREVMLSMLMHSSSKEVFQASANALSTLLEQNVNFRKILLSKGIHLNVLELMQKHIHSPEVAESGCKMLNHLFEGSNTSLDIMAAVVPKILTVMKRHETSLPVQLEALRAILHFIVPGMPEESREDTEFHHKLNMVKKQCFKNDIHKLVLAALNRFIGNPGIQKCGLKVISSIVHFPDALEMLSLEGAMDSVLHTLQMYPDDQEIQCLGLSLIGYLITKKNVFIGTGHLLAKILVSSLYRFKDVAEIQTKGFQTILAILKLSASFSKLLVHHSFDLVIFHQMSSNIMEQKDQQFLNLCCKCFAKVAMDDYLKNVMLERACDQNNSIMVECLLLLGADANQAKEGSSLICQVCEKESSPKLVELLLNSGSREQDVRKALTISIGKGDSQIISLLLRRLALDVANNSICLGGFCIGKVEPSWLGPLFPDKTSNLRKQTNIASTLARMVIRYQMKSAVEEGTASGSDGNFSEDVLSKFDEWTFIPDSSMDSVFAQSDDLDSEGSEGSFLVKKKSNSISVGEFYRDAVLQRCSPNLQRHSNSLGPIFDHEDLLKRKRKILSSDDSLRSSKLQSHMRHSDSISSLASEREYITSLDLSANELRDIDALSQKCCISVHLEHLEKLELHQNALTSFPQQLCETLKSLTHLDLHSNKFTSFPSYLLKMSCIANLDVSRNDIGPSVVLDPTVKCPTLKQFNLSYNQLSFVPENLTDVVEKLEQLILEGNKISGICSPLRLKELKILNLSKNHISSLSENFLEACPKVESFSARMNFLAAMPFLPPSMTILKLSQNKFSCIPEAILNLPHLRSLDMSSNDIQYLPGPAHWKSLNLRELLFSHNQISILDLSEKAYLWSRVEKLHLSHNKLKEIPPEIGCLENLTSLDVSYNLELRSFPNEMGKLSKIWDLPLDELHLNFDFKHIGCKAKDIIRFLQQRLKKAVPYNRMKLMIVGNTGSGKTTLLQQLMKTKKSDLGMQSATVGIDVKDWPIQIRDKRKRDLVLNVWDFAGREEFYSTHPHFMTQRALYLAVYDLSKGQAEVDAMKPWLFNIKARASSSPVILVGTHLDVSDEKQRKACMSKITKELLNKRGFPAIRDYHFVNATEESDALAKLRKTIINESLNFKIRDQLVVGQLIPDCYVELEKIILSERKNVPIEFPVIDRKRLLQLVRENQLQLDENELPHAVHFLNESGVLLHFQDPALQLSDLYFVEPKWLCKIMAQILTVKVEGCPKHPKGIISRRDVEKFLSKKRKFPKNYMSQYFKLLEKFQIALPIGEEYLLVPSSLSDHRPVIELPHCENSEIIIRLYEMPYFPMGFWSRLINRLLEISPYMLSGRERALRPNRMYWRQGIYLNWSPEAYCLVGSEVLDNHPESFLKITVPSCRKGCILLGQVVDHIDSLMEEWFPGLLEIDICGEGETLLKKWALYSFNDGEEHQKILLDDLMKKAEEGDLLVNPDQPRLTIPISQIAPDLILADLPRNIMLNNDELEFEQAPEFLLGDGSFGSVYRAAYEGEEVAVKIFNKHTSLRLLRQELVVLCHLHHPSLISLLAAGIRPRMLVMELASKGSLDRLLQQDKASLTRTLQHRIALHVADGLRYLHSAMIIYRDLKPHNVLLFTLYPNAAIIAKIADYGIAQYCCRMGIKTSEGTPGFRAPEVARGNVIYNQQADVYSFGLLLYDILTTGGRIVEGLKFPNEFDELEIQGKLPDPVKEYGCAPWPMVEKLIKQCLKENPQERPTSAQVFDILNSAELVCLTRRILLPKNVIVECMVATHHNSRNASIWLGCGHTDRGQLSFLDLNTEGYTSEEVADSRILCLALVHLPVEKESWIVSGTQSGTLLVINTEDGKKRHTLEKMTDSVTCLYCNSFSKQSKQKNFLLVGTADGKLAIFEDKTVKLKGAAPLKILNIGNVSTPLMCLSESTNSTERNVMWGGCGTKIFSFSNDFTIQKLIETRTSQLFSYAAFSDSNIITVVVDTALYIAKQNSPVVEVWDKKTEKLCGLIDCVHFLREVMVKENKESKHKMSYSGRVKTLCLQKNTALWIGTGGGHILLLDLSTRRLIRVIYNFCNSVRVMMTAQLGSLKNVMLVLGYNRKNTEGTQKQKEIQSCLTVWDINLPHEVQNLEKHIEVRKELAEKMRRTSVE

According to patent publication US12559506B2, “Indazole based compounds and associated methods of use” (Arvinas Operations, Inc., priority 2021, dated 2026):

Target: LRRK2 (endogenous, HiBit tagged) (Homo sapiens, UniProt Q5S007)
Assay: Endogenous LRRK2 degradation assay, endogenous gene C-terminally HiBit-tagged in HEK293 cells (Nano-Glo Dual Luciferase)
From the text: Exemplary Assay for Testing LRRK2 Degradation Driven by Exemplary Hetero-Bifunctional Compounds Designed to Target LRRK2
The assay measures the degradation of LRRK2 in cells where the C-terminus (3′) of the endogenous gene has been tagged with a HiBit sequence in HEK293 cells. The cells also express firefly luciferase, expressed from a Cytomegalovirus promoter and introduced into the HiBit tagged cells and stably expressed. The Nano-Glo® Dual Luciferase Reporter Assay System (Promega™, Madison, WI) was utilized.
Day 1—Preparation of Compound and Assay Plates. Two sets of plates were prepared: a triplicate set for the HiBit assay in white 384-well plates and a triplicate set of plate in black 384-well plates for the Alamar Blue cell viability assay. Briefly, the growth media (DMEM+Glutamax-10% fetal bovine serum-1% Penicillin-Streptomicin) from two T128 flasks was aspirated from the flasks. Cells were washed with Dulbecco's Phosphate Buffered Saline (dPBS) and aspirated. […]
Day 3—HiBit Assay. […] Fluorescence of each plate was read on a plated reader for the Alamar Blue viability assay. […]
The One Glo luciferase mixture was prepared. […] The luminescence of each plate was read on a plate reader.
1:100 DLR substrate and 1:100 LgBiT Protein dilution were added to the Promega Stop and Glo buffer and mixed just before addition to assay plates. […] The luminescence of each plate was read on a plate reader. […]

## C[C@H]1CN(c2cc(-c3n[nH]c4ccc(OC5(C)CC5)cc34)ncn2)CCN1CC1(F)CCN(CC2CCN(c3cc4c(cc3F)C(=O)N(C3CCC(=O)NC3=O)C4)CC2)CC1 (some centres unmarked)
24 hours
  **Endogenous WT Dmax (%): A (A ≥ 70)
read-out: *Endogenous WT DC50, 24 hours
  DC50: < 0.01 µM
